The record followed here is patent US7732464B2, “Heterocyclic substituted 4-(aminomethyl)-piperidine benzamides as 5HT4-antagonists” (Janssen Pharmaceutica, N.V., priority 2003, dated 2010).

By UniProt entry, the sequences of proteins in these tests, tags left out.
UniProt Q13639, whole entry: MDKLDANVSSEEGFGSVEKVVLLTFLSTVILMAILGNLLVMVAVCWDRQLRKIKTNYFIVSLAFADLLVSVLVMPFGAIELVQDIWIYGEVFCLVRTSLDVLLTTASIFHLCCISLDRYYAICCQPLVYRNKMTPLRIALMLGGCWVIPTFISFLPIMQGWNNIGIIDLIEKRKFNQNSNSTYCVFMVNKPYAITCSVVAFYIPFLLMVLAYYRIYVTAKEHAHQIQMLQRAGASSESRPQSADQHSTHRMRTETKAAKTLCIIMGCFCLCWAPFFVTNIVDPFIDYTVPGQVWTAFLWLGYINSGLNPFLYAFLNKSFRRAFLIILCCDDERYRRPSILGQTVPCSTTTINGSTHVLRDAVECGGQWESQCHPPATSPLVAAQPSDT

The target of one series is h5-HT4b (Homo sapiens, UniProt Q13639). Nature of the series: 5HT4 antagonism: [3H]GR113808 binding to membranes of h5-HT4b-HEK 293 clone 9 cells. The note with it: displacement of [3H]GR113808 0.1 nM, h5-HT4b-HEK 293 membranes, 30 min at 25° C. As to the method: h5-HT4b-HEK 293 clone 9 cells were cultured in 150 mm Petri dishes and washed twice with cold PBS. The cells were then scraped from the plates and suspended in 50 mM Tris-HCl buffer, pH 7.4 and harvested by centrifugation at 23,500 rpm for 10 minutes. The pellet was resuspended in 5 mM Tris-HCl, pH 7.4 and homogenized with an Ultra Turrax homogenizer. The membranes were collected by centrifugation at 30,000 rpm for 20 min, resuspended in 50 mM Tris-HCl pH 7.4 and stored at −80° C. For the experiment, assay mixtures (0.5 ml) contained 50 μl of the tritiated ligand (5-HT4 antagonist [^3H]GR113808 0.1 nM) and 0.4 ml membrane preparation (15 μg protein/ml). 50 μl of 10% DMSO was added for total binding. 50 μl of 1 μM of (+)-trans-(1-butyl-3-hydroxy-4-piperidinyl)methyl 8-amino-7-chloro-2,3-dihydro-1,4-benzodioxin-5-carboxylate (a proprietary 5HT4 agonist of Janssen Pharmaceutica) was added for determination of non-specific binding.
The [^3H]GR113808 assay buffer was 50 mM HEPES-NaOH, pH 7.4. The mixtures were incubated for 30 min at 25° C. The incubation was terminated by filtration over a Unifilter 96 GF/B presoaked in 0.1% polyethylenimine, followed by six washing steps with 50 mM HEPES-NaOH, pH 7.4.
For orientation: Loss of bound radioactivity is the signal in a displacement assay; it reports binding, not function.

A short description of series [1]: Metabolic stability: incubation with liver microsomes and NADPH-generating system, LC-MS analysis. The note with it: compound 5 μM; microsomes 1 mg/ml; NADPH-generating system; 60 minutes at 37 degrees Celsius. The procedure: Sub-cellular tissue preparations were made according to Gorrod et al. (Xenobiotica 5: 453-462, 1975) by centrifugal separation after mechanical homogenization of tissue. Liver tissue was rinsed in ice-cold 0.1 M Tris-HCl (pH 7.4) buffer to wash excess blood. Tissue was then blotted dry, weighed and chopped coarsely using surgical scissors. The tissue pieces were homogenized in 3 volumes of ice-cold 0.1 M phosphate buffer (pH 7.4).
Tissue homogenates were centrifuged at 9000×g for 20 minutes at 4° C. The resulting supernatant was stored at −80° C. and is designated ‘S9’.
The S9 fraction can be further centrifuged at 100.000×g for 60 minutes (4° C.). The resulting supernatant was carefully aspirated, aliquoted and designated ‘cytosol’. The pellet was re-suspended in 0.1 M phosphate buffer (pH 7.4) in a final volume of 1 ml per 0.5 g original tissue weight and designated ‘microsomes’.
All sub-cellular fractions were aliquoted, immediately frozen in liquid nitrogen and stored at −80° C. until use. […]
Metabolic stability was expressed as % metabolism of the compound after 60 minutes (equation given as Example) of incubation in the presence of active microsomes E(act))

Take `Cc1cc2c(c(C(=O)NC[C@@H]3CCN(CCCc4nnn[nH]4)C[C@H]3O)c1)OCCCO2`: the “pIC50 (5HT4 antagonistic data)” value on h5-HT4b (tested form: HCl) came to 7.77.
For the compound `Cc1ccc(C(=O)NC[C@@H]2CCN(CCCN3CC(=O)NC3=O)C[C@H]2O)c2c1OCCCO2`, the “% metabolised compound after 60 minutes” value in series [1] is 17%. For the same compound, the “pIC50 (5HT4 antagonistic data)” value on h5-HT4b is recorded as 8.48.
With `CO[C@@H]1CN(CCCc2cc(O)no2)CC[C@H]1CNC(=O)c1cc(F)cc2c1OCCCO2` (relative stereo), the “pIC50 (5HT4 antagonistic data)” value at h5-HT4b came to 7.3.
On to `COc1ccc(C(=O)NC[C@@H]2CCN(CCCN3CCOCC3)C[C@H]2O)c2c1OCCCO2`, for which, in series [1], the “% metabolised compound after 60 minutes” value amounted to 8%. Further, on h5-HT4b, the “pIC50 (5HT4 antagonistic data)” value is 8.51.
For the compound `Cc1ccc(C(=O)NC[C@@H]2CCN(CCCCn3ccc(O)n3)C[C@H]2O)c2c1OCCCO2`, the “pIC50 (5HT4 antagonistic data)” value on h5-HT4b is 8.91.
Turning to `Cc1cc2c(c(C(=O)NC[C@@H]3CCN(CCCn4nn[nH]c4=O)C[C@H]3O)c1)OCCCO2`, at h5-HT4b (tested form: H2O), the “pIC50 (5HT4 antagonistic data)” value is given as 7.82.
For `O=C(NC[C@@H]1CCN(CCCCn2ccc(O)n2)C[C@H]1O)c1ccc(F)c2c1OCCCO2`, the “pIC50 (5HT4 antagonistic data)” value at h5-HT4b amounted to 9.14.
